Data: ChEMBL document CHEMBL4665789, “Discovery of Novel pERK1/2- or β-Arrestin-Preferring 5-HT Receptor-Biased Agonists: Diversified Therapeutic-like versus Side Effect Profile” (J Med Chem, 2020)

Test: Permeability of the compound at 100 uM measured after 40 mins by PAMPA
Type: ADME
Details: read-out: permeability

With CCn1cc(C(=O)O)c(=O)c2cc(F)c(N3CCNCC3)cc21 [NORFLOXACIN] as the molecule, how does the Papp at 40 min, 100 µM read?
The Papp at 40 min, 100 µM was 0.56 ×10⁻⁶ cm/s.
